This note sets out measurements from patent US20230285581A1.

Protein sequences, listed by entry. Tags and fused reporters are not part of them. Lines headed by an entry give the natural chain unless they say otherwise; changes in a name come on top. Chains listed by the source or under a name are the forms on record and can include a tag or linker.
UniProt P21757, other isoform, or with tags, fused parts or gaps: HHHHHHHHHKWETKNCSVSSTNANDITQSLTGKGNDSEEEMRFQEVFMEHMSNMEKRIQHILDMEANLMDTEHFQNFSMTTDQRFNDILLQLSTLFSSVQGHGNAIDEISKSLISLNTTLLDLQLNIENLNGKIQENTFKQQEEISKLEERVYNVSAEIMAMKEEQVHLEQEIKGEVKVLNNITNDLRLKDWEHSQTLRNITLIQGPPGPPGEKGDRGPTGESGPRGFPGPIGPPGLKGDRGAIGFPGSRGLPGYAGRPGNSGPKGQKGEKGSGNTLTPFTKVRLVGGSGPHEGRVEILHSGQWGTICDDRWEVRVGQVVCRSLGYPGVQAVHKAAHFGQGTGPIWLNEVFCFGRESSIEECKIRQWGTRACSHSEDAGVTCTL
UniProt P30204: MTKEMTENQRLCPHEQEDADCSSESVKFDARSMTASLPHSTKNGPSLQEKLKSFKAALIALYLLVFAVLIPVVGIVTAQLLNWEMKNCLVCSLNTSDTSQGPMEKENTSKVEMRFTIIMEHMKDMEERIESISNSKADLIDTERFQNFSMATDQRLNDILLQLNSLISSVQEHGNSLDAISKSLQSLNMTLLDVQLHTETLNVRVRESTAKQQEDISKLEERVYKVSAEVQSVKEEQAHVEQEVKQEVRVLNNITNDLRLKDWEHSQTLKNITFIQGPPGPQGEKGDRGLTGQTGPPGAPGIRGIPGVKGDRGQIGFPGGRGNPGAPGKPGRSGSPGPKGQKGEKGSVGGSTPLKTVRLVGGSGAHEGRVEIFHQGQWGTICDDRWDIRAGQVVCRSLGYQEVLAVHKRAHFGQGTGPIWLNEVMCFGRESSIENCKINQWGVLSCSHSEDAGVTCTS

Assay [1] has as its target full length monkey MSR1 on HEK293.mfMSR1 cells (Macaca fascicularis). As to the kind of experiment: ECL cell binding, HEK293.mfMSR1 cells.
The target in assay [2] is endogenously expressed human MSR1 on PMA-treated THP-1 cells (human) (UniProt P21757). As to the kind of experiment: ECL cell binding, PMA-treated THP-1 cells.
The target of assay [3] is human MSR1 extracellular domain expressed with a N-terminal nonahistidine tag (His9-hMSR1; R&D Systems, Cat #2708-MS) (human) (UniProt P21757). As to the kind of experiment: competition ELISA; 100 nM antibody, competitor Ac-LDL, plate-coated His9-hMSR1. (An ELISA detects its analyte on a solid surface through an enzyme-linked reagent.)
The target in assay [4] is full length human MSR1 with a C-terminal Myc tag on HEK293.Myc.hMSR1 cells (human) (UniProt P21757). As to the kind of experiment: ECL cell binding, HEK293.Myc.hMSR1 cells.
The target of assay [5] is human MSR1 extracellular domain expressed with a N-terminal nonahistidine tag (His9-hMSR1; R&D Systems, Cat #2708-MS) (human) (UniProt P21757). As to the kind of experiment: competition ELISA; 1 µM antibody, competitor 10 nM Ox-LDL, plate-coated His9-hMSR1.
Assay [6] shares this target. As to the kind of experiment: competition ELISA; 300 nM antibody, competitor biot-AGE-BSA, plate-coated His9-hMSR1.
Assay [7] deals with mouse MSR1 on RAW264.7 cells (mouse) (UniProt P30204). As to the kind of experiment: flow cytometry, RAW264.7 cells, 10 ug/mL. For orientation: Flow cytometry measures light scatter and fluorescence of single cells or particles in a stream.

B1: H1H27751P-N297Q (antibody, human IgG1, V domains shown)
VH: EVQLVESGGGLVQPGGSLRLSCAASGFTFSNYAMHWVRQAPGKGLEYVSAISSNGGSTYYADSVKGRITISRDNSKNTLYLQMGSLRAEDMAVYYCARGRPYYYYFGMDVWGQGTTVTVSS
VL: DIVMTQTPVSSPVTLGQPASISCRSSQSLVHSDGNTYLSWFQQRPGQPPRLLIYKISNRFSGVPDRFSGSGAGTDFTLKISRVEAEDVGVYYCMQATQFPLNFGGGTKVEIKR
For the molecule B1, the ratio of 11 nM antibody binding signal (RLU) to isotype control in assay [1] amounted to 49; in assay [2] it was 54; in assay [4], 63. Moreover, the % Blocking in assay [3] was -51%; in assay [5], -31%; in assay [6], -11%. The MFI in assay [7] stood at 3820. The molecule also came in with a S/N in assay [7] of 1.
